2 substances from patent US9872849B2, “Diterpenoid membranolide compounds having anti-leishmania activity and uses thereof” (UNIVERSITY OF SOUTH FLORIDA, priority 2014, dated 2018) can be followed below.

The series concerns L. donovani axenic amastigotes. It is filed as cell-based, Leishmania donovani. On the procedure:
Leishmaniasis efficacy was tested against L. donovani axenic amastigotes (amphotericin B, positive control=0.38 μM). Cytotoxicity was verified against Vero cells.

Turning to membranolide G, the “selectivity index (cytotoxicity/activity)” value is given as “high selectivity index”. The entry for membranolide H is “high selectivity index”.
